Compound activity deposited in PubChem BioAssay by several laboratories.
The list is not random: actives were taken first. Their share in the collection is about 4.2%.
MC4R antag cAMP: blocks human MC4R cAMP signaling | inhibition, % at 6.5 µM | actives 0.48% (n = 360,000) | P32245 | MC4R-expressing cells, MTII-stimulated cAMP, LANCE TR-FRET;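 active = inhibition above its plate's cutoff, the mean of tested wells on that plate plus 3 SD, cut at about 29% in these data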;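 also: 0% = Melanotan II alone and 100% = Melanotan II plus saturating MCL0020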
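Assay system: U2OS cells stably expressing human melanocortin 4 receptor (MC4R) / Dosing: 6.5 µM / Timing: compound 30 min, challenge 1 h, detection 1 h / Measured by: Eu-cAMP/anti-cAMP TR-FRET, emission 671 nm / Replicates: singlicate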
Yeast UUG start: alters start codon recognition fidelity in yeast | S. cerevisiae UUG-firefly luciferase reporter, luminescence/redox ratio | activity score, % at 18.7 µM | hit rate 0.13% among 350,000 | AID 602363;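 active means replicate mean at a twofold rise or more, about +100% in these data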;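 further: firefly luciferase made from a UUG start codon reports start codon fidelity; reporter light over untreated wells divided by growth signal over untreated wells; some hits fall short of that in this replicate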
MC4R barr agon: human MC4R agonism via beta-arrestin | P32245 | U2OS MC4R beta-arrestin complementation, luminescence; percent of melanotan II response, DMSO zero | activation, % at 8.9 µM | actives 0.98% (n = 360,000) | AID 540308;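 active = activation above a per-plate cutoff, the mean activation of sample wells on that plate plus 3 SD, cut at about 8% in these data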
HDAC3 inhib: inhibitors of human histone deacetylase 3. recombinant HDAC3, fluorogenic peptide/trypsin coupled, fluorescence. inhibition, % at 8.3 µM. actives 0.15% (n = 320,000); in the data active = inhibition above about 26%, passing the limit was not always enough; inconclusive = no clear call, values can overlap the other calls
ALR H2O2 inh: inhibitors of human ALR sulfhydryl oxidase, primary screen, biochemical, H2O2 detection, HRP-luminol luminescence, single point. purified ALR, DTT oxidation. inhibition, % (concentration not given with the values). 290,000 compounds, 3.8% hits. AID 485317, 2010;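 active = mean and each replicate at 75% or more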;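 note: stock transfer was 7.5 nL into about 7.5 µL; 0% = neutral wells and 100% = wells with inactivated enzyme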
NALP1 yeast inh: NALP1 inhibition. S. cerevisiae NALP1/ASC/caspase-1 growth, X-gal OD620, 72 h. inhibition, % at 10 µM. actives 0.61% (n = 280,000); in the data active = inhibition mostly above about 24%, no sharp cut-off; inactive = mostly below about 32%
Starred values were filed as active, the others as inactive.

What do the screens show for `COc1cc(C2C(C#N)=C(N)Oc3n[nH]c(-c4cccs4)c32)cc(OC)c1O` (stereo unspecified)?
MC4R antag cAMP: -42; Yeast UUG start: -16; MC4R barr agon: -1; HDAC3 inhib: 6; ALR H2O2 inh: 89*; NALP1 yeast inh: 4

How did COc1ccc(S(=O)(=O)N[C@H]2CC[C@@H](CC(=O)N3CCc4ccccc4C3)O[C@H]2CO)cc1 do in these assays?
Yeast UUG start: -8

Results for Cc1noc(C)c1S(=O)(=O)N(C)C[C@H]1Oc2ccc(NC(=O)C3CCCCC3)cc2CC(=O)N([C@@H](C)CO)C[C@@H]1C ?
Yeast UUG start: 2

How did COCC(C)n1c(C)cc(C(=O)CSc2ccc(NC(C)=O)cc2)c1C (stereo unspecified) do in these assays?
MC4R antag cAMP: 9; Yeast UUG start: -6; MC4R barr agon: 0; HDAC3 inhib: 0; ALR H2O2 inh: 98*; NALP1 yeast inh: 38

How did C=CCn1c(C)cc(C(=O)CSc2ccc(NC(C)=O)cc2)c1C do in these assays?
MC4R antag cAMP: -3; Yeast UUG start: 0; MC4R barr agon: -2; HDAC3 inhib: 0; ALR H2O2 inh: 98*; NALP1 yeast inh: 18

How did COCCn1c(C)cc(C(=O)CSc2ccc(NC(C)=O)cc2)c1C do in these assays?
MC4R antag cAMP: 4; MC4R barr agon: -1; HDAC3 inhib: 2; ALR H2O2 inh: 98*; NALP1 yeast inh: 10

What do the screens show for `C=CCn1c(C)cc(C(=O)CSc2n[nH]c(N)n2)c1C`?
MC4R antag cAMP: -6; Yeast UUG start: -30; MC4R barr agon: 0; HDAC3 inhib: -1; ALR H2O2 inh: 98*; NALP1 yeast inh: -18

What do the screens show for `CC(=O)Nc1ccc(SCC(=O)c2cc(C)n(Cc3cccs3)c2C)cc1`?
MC4R antag cAMP: 2; Yeast UUG start: -8; MC4R barr agon: 2; HDAC3 inhib: 3; ALR H2O2 inh: -11; NALP1 yeast inh: -6

How did CC(C)NC(=O)N(C)C[C@@H]1Oc2ccc(NS(=O)(=O)c3cn(C)cn3)cc2C(=O)N([C@H](C)CO)C[C@@H]1C do in these assays?
Yeast UUG start: -10

What do the screens show for `COCC#Cc1cnc2c(c1)C(=O)N([C@H](C)CO)C[C@@H](C)[C@@H](CN(C)C(=O)NC1CCCC1)O2`?
Yeast UUG start: 34

How did CCCC#Cc1ccc2c(c1)O[C@H](CN(C)C(=O)c1ccccc1)[C@@H](C)CN([C@@H](C)CO)S2(=O)=O do in these assays?
Yeast UUG start: 5

What do the screens show for `CCN1C(=O)c2cccc3c(S(=O)(=O)Nc4ccc(O)c(C(=O)O)c4)ccc1c23`?
MC4R antag cAMP: -7; Yeast UUG start: 5; MC4R barr agon: -3; HDAC3 inhib: 0; ALR H2O2 inh: 98*; NALP1 yeast inh: 2

What do the screens show for `Cc1c(C)n(CC(O)CN2CCCCCC2)c2ccccc12` (stereo unspecified)?
MC4R antag cAMP: -1; Yeast UUG start: 2; MC4R barr agon: -3; HDAC3 inhib: -9; ALR H2O2 inh: 98*; NALP1 yeast inh: 0

How did Cc1c(C)n(CC(O)CNc2ccccc2)c2ccccc12 (stereo unspecified) do in these assays?
MC4R antag cAMP: 5; MC4R barr agon: 1; HDAC3 inhib: inconclusive; ALR H2O2 inh: 98*; NALP1 yeast inh: -9

Results for COc1ccc(NCC(O)Cn2c(C)c(C)c3ccccc32)cc1 (stereo unspecified) ?
MC4R antag cAMP: 1; MC4R barr agon: 0; HDAC3 inhib: 3; NALP1 yeast inh: 11

How did Cc1ccc(S(=O)(=O)N(C)C[C@@H]2Oc3ncc(-c4ccc(F)cc4)cc3C(=O)N([C@H](C)CO)C[C@@H]2C)cc1 do in these assays?
Yeast UUG start: 3

What do the screens show for `O=C(Nc1ncccc1O)c1cccc(S(=O)(=O)N2CCCC2)c1`?
MC4R antag cAMP: 1; Yeast UUG start: -5; MC4R barr agon: 0; HDAC3 inhib: -20

How did CC1CCN(S(=O)(=O)c2ccc(C(=O)Nc3ncccc3O)cc2)CC1 do in these assays?
MC4R antag cAMP: 8; Yeast UUG start: -4; MC4R barr agon: -2; HDAC3 inhib: 64*; ALR H2O2 inh: -5; NALP1 yeast inh: -3

Results for O=C(Nc1ncccc1O)c1cccc(S(=O)(=O)N2CCc3ccccc32)c1 ?
MC4R antag cAMP: 2; Yeast UUG start: -14; MC4R barr agon: -2; HDAC3 inhib: 4; ALR H2O2 inh: 33; NALP1 yeast inh: 34*

Results for C[C@@H]1CN([C@H](C)CO)C(=O)Cc2cc(NC(=O)Cc3ccccc3)ccc2O[C@H]1CN(C)C(=O)Nc1cccc2ccccc12 ?
Yeast UUG start: -10

Results for Cc1ccc2sc(NNC(=O)C3=COCCO3)nc2c1C ?
MC4R antag cAMP: 5; MC4R barr agon: -1; HDAC3 inhib: 6; ALR H2O2 inh: 99*; NALP1 yeast inh: -3

How did O=C(NNc1nc2c(F)cccc2s1)C1=COCCO1 do in these assays?
MC4R antag cAMP: 3; Yeast UUG start: -4; MC4R barr agon: -2; HDAC3 inhib: 5; ALR H2O2 inh: 100*; NALP1 yeast inh: 14

What do the screens show for `Cc1ccc2sc(N3CCN(C(=O)C4=COCCO4)CC3)nc2c1C`?
MC4R antag cAMP: 3; MC4R barr agon: 1; HDAC3 inhib: 4; ALR H2O2 inh: -35

What do the screens show for `C[C@H]1CCCCO[C@H](CN(C)C(=O)Nc2ccccc2)[C@@H](C)CN([C@@H](C)CO)C(=O)c2cc(NS(=O)(=O)c3cccs3)ccc2O1`?
Yeast UUG start: -3

Results for C[C@@H]1CN([C@@H](C)CO)C(=O)c2cc(NC(=O)Cc3ccccc3)ccc2O[C@@H]1CN(C)C(=O)Nc1ccc2c(c1)OCO2 ?
Yeast UUG start: 5

What do the screens show for `Fc1ccc(-c2nc3ccccc3[nH]2)cc1`?
MC4R antag cAMP: 0; MC4R barr agon: -1; HDAC3 inhib: -3; NALP1 yeast inh: 36*

What do the screens show for `Nc1ccc(-c2nc3c(ccc4ccccc43)[nH]2)cc1`?
MC4R antag cAMP: 12; Yeast UUG start: -4; MC4R barr agon: 0; HDAC3 inhib: -169; ALR H2O2 inh: 99*; NALP1 yeast inh: -9

How did Clc1nc2c(ccc3ccccc32)[nH]1 do in these assays?
MC4R antag cAMP: 1; Yeast UUG start: -16; MC4R barr agon: 0; HDAC3 inhib: 1; NALP1 yeast inh: -16

Results for Nc1ccc(-c2nc3ccccc3[nH]2)cc1 ?
MC4R antag cAMP: 15; Yeast UUG start: -19; MC4R barr agon: 0; HDAC3 inhib: -73; ALR H2O2 inh: 98*

How did C[C@H](NC(=O)C[C@H]1CC[C@@H](NC(=O)C2CCC2)[C@H](CO)O1)c1ccccc1 do in these assays?
Yeast UUG start: -17

Results for COc1ccccc1-c1cnc2c(c1)C(=O)N([C@@H](C)CO)C[C@@H](C)[C@H](CN(C)C(C)=O)O2 ?
Yeast UUG start: -7
